{
  "source": "patent US9592281B2",
  "about": "“Method for inducing immunity with a peptide fragment from human CAPRIN-1” (Toray Industries, Inc., priority 2008, dated 2017)",
  "key": {"[1]": {"test_system": "canine peripheral blood mononuclear cells", "test": "ELISpot assay of IFNγ using peripheral blood mononuclear cells of administered dogs", "assay_type": "cell-based, dog", "details": "5×10^5 cells/well, restimulated with the administered polypeptide 24 hours, no spots before administration", "source_text": "The blood samples of the clinically affected dogs to which the recombinant polypeptides having the amino acid sequences shown by SEQ ID NO: 6, SEQ ID NO: 2, and SEQ ID NO: 8 had been administered in the administration test conducted in (1) above were obtained before administration and 10 days and 30 days after the initial administration, peripheral blood mononuclear cells were separated in accordance with a conventional technique, and the capacity of the recombinant proteins for immunity induction was evaluated via the ELISpot assay of IFNγ using the peripheral blood mononuclear cells.\n70% ethanol was added to a 96-well plate (MultiScreen-IP, MAIPS4510, Millipore) in amounts of 100 μl/well, the plate was allowed to stand for 5 minutes, ethanol was aspirated off, the plate was washed with sterilized water, 200 mM sodium bicarbonate (pH 8.2) was added in amounts of 300 μl/well, the plate was allowed to stand for 5 minutes, sodium bicarbonate was aspirated off, and the plate was washed. […] After the reaction was terminated, the membrane was dried, and the number of the developed spots was counted using the KS Elispot (Carl Zeiss). As a result, no spots were detected in the peripheral blood mononuclear cells of clinically affected dogs before polypeptide administration. […]"}, "[2]": {"test_system": "tumor of cancer-bearing dog (breast cancer)", "test": "Antitumor evaluation of recombinant protein in cancer-bearing dog", "assay_type": "in vivo", "details": "dog with breast cancer; with Freund's incomplete adjuvant, 3 times, plus 100 μg canine interleukin 12 subcutaneously; tumor at administration about 123 mm^3 (SEQ ID NO: 2), about 96 mm^3 (SEQ ID NO: 8)", "procedure": "A cancer-bearing dog (breast cancer) having a tumor on the epidermis was subjected to evaluation of the antitumor effects of the recombinant protein purified above.\nThe recombinant polypeptide having the amino acid sequence shown by SEQ ID NO: 6 purified in the above-described manner (100 μg, 0.5 ml) was mixed with the equivalent amount of the Freund's incomplete adjuvant (Wako Pure Chemical Industries, Ltd.) to prepare a cancer therapeutic agent. The resulting agent was administered 3 times in total to the regional lymph node in the vicinity of the tumor, as an initial-administration, and 3 days and 7 days thereafter. As a result, a tumor about 86 mm^3 in size when the cancer therapeutic agent was administered shrank to 55 mm^3, 30 mm^3, and 20 mm^3 10 days, 20 days, and 30 days after the initial administration, respectively.\nA mixture of 0.5 ml of the recombinant polypeptide having the amino acid sequence shown by SEQ ID NO: 2 and 0.5 ml of the Freund's incomplete adjuvant was administered to another dog having breast cancer 3 times in total in the same manner as described above. Also, 100 μg of canine interleukin 12 was administered together with the agent subcutaneously. As a result, a tumor about 123 mm^3 in size when the cancer therapeutic agent was administered completely regressed 45 days after the initial administration of the cancer therapeutic agent. […]"}},
  "data": [
    {"molecule": "SEQ ID NO: 2: recombinant polypeptide having the amino acid sequence shown by SEQ ID NO: 2 (human CAPRIN-1), expressed in E. coli (protein, listed as Homo sapiens) MPSATSHSGSGSKSSGPPPPSGSSGSEAAAGAGAAAPASQHPATGTGAVQTEAMKQILGVIDKKLRNLEKKKGKLDDYQERMNKGERLNQDQLDAVSKYQEVTNNLEFAKELQRSFMALSQDIQKTIKKTARREQLMREEAEQKRLKTVLELQYVLDKLGDDEVRTDLKQGLNGVPILSEEELSLLDEFYKLVDPERDMSLRLNEQYEHASIHLWDLLEGKEKPVCGTTYKVLKEIVERVFQSNYFDSTHNHQNGLCEEEEAASAPAVEDQVPEAEPEPAEEYTEQSEVESTEYVNRQFMAETQFTSGEKEQVDEWTVETVEVVNSLQQQPQAASPSVPEPHSLTPVAQADPLVRRQRVQDLMAQMQGPYNFIQDSMLDFENQTLDPAIVSAQPMNPTQNMDMPQLVCPPVHSESRLAQPNQVPVQPEATQVPLVSSTSEGYTASQPLYQPSHATEQRPQKEPIDQIQATISLNTDQTTASSSLPAASQPQVFQAGTSKPLHSSGINVNAAPFQSMQTVFNMNAPVPPVNEPETLKQQNQYQASYNQSFSSQPHQVEQTELQQEQLQTVVGTYHGSPDQSHQVTGNHQQPPQQNTGFPRSNQPYYNSRGVSRGGSRGARGLMNGYRGPANGFRGGYDGYRPSFSNTPNSGYTQSQFSAPRDYSGYQRDGYQQNFKRGSGQSGPRGAPRGRGGPPRPNRGMPQMNTQQVN", "values": [
      {"measurement": "number of IFNγ spots detected in peripheral blood mononuclear cells", "setting": "[1]; 10 days after the administration", "value": 53, "unit": "spots"},
      {"measurement": "number of IFNγ spots detected in peripheral blood mononuclear cells", "setting": "[1]; 30 days after the administration", "value": 189, "unit": "spots"},
      {"measurement": "tumor completely regressed, time after the initial administration", "setting": "[2]", "value": 45, "unit": "days"}
    ]}
  ]
}
